Bioassay records: PubChem, National Center for Advancing Translational Sciences (NCATS)
Shown are actives, neighbours in structure and some others; about 13% of the full set was active somewhere.
JMJD2E inh: inhibitors of human JMJD2E histone demethylase; JMJD2E catalytic domain, FDH-coupled NADH fluorescence (FDH is formaldehyde dehydrogenase); AID 2147; Potency, µM (highest dose often 57.1 µM), for inactives: top-dose activity change, negative = inhibition, usual class: inhibitors; 230,000 tested, 1.6% active; active means well fitted inhibition curve with a large enough effect, not every such curve was filed as active; inconclusive means small, poorly fitted or top-dose-only effect, or another doubt; inactive means no such curve, though single readings can be large or run the other way;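 further: potency means the concentration at half of the fitted maximal effect; 0% = wells with enzyme and -100% = buffer wells without enzyme; nearly all actives have a fitted effect of over 50% in size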
miR-21 reporter: raises the signal of a miR-21 reporter; 340,000 tested, under 10 active; HeLa miR-21 FLuc reporter, luciferase, 48 h; Potency, µM (highest dose often 38.3 µM), without a hit: top-dose reporter change, positive = more light; active = well fitted rising curve with a large enough effect; inconclusive = small, poorly fitted or top-dose-only effect; inactive = no such curve, though single readings can be large or run the other way;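 also: % of control where 0% means no effect; miR-21 action dims this reporter so a rising signal means less miR-21 action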
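HeLa miR-21-FLuc reporter line, endogenous miR-21; 2000 cells/well in DMEM/10% FBS; compound titration up to ~40uM final, 48 h, 37 degree Celsius; luciferase detection reagent, 15 min lysis, CCD luminescence.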
ALDH1A1 inh: inhibitors of human aldehyde dehydrogenase 1A1 | P00352 | Purified ALDH1A1, NADH fluorescence, propionaldehyde substrate | Potency, µM (series often up to 75.3 µM), for inactives: at the top dose activity, negative = inhibition, hits mostly inhibitors | 220,000 tested, 7.3% active | AID 1030; active means well fitted inhibition curve with a large enough effect, not every such curve was filed as active; inconclusive means small, poorly fitted or top-dose-only effect, or another doubt; inactive means no such curve, though single readings can be large or run the other way;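 further: potency means the concentration at half of the fitted maximal effect; plate controls were no enzyme wells and a reference inhibitor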
Sfp PPTase inh: inhibitors of Bacillus subtilis Sfp phosphopantetheinyl transferase. Q9F4F7. Biochemical Sfp PPTase activity, qHTS. Potency, µM, for the others: max response, negative = inhibition, most hits filed as inhibitors. actives 3.5% (n = 310,000). AID 1490; active means well fitted inhibition curve with a large enough effect; inconclusive means small, poorly fitted or top-dose-only effect, or another doubt; inactive means no such curve, though single readings can be large or run the other way;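 further: the enzyme is Sfp with the accession as filed and its product quenches rhodamine fluorescence; potency means the concentration at half of the fitted maximal effect; 0% = enzyme reaction without inhibitor and -100% = no enzyme wells; top concentration of the series not given in the record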
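Compounds were incubated with enzyme (final 15 nM) for 15 min at room temperature before substrate addition started the reaction. Fluorescence at 525 nm excitation, 598 nm emission was recorded immediately and after 30 minutes.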
G9a block: blocks human histone lysine methyltransferase G9a; Q96KQ7; G9a H3K9 monomethylation, AlphaScreen, 2 h; Potency, µM (doses to about 102 µM), without a hit: top-dose activity, negative = inhibition, most hits filed as inhibitors; 350,000 tested, 8.8% active; AID 504332; further: potency means the concentration at half of the fitted maximal effect; on the % scale 0 is the no-effect control and ±100 the full control effect; nearly all actives have a fitted effect of over 75% in size
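G9a (20 nM) preincubated 15 min RT with compounds, then 500 nM biotinylated H3K9 peptide and 20 uM SAM added; 2 h RT reaction. Monomethyl-H3K9 product detected by AlphaScreen with anti-H3K9me1 antibody, streptavidin donor and anti-rabbit IgG acceptor beads.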
Lamin A splicing: changes lamin A minigene splicing in HeLa cells | 200,000 tested, 0.01% active | Potency, µM (highest dose often 46.1 µM), for the others: at the top dose ratio change, negative = inhibition, actives largely listed as inhibitors | HeLa LMNA splicing GFP/RFP minigene ratio, 48 h; active means well fitted inhibition curve with a large enough effect in the signal ratio, with a control signal flat, not every such curve was filed as active; inconclusive means small, poorly fitted or top-dose-only effect, or effect the other way, or a change in a side signal; the % refers to the signal ratio; further: potency means the concentration at half of the fitted maximal effect; on the % scale 0 is the no-effect control and ±100 the full control effect
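Read-out is the ratio of GFP to DsRed2 object intensity, acquired by 488 nm laser-scanning cytometry on HeLa lamin A-EGFP minigene reporter cells. Compound incubation 48 hrs at 37 °C in Opti-MEM with 2% FBS; DMSO 0.5% final.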
Numbers without * were called inactive; [ ] = another dose, or the depositor's remark. Unless noted, the call rests on the fitted dose curve; in most records, active means well fitted curve in the direction sought with a large enough effect; inconclusive means small, poorly fitted or top-dose-only effect, or another doubt; inactive means no such curve, though single readings can be large; an effect the other way counts as inactive or inconclusive.

What do the screens show for `COC(=O)c1ccc(NC(=O)c2c(NCc3ccc(OC)c(OC)c3)sc3c2CCCC3)cc1`?
miR-21 reporter: 4%; G9a block: inconclusive; Lamin A splicing: inconclusive

Results for COc1ccc(OC)c(NC(=O)c2c(NCc3ccc(OC)c(OC)c3)sc3c2CCC(C)C3)c1 (stereo not given) ?
miR-21 reporter: -4%; G9a block: 13µM*; Lamin A splicing: inconclusive

How did COc1ccc(OC)c(NC(=O)c2c(NCc3ccc(C)o3)sc3c2CCC(C)C3)c1 (stereo not given) do in these assays?
miR-21 reporter: 1%; G9a block: 11µM*; Lamin A splicing: inconclusive

How did Fc1ccccc1NC(=S)N1CCOCC1 do in these assays?
miR-21 reporter: -5%; Sfp PPTase inh: 5%; G9a block: -3%

How did CCOc1ccccc1NC(=O)c1c(NCc2ccc(C)o2)sc2c1CCCCC2 do in these assays?
miR-21 reporter: -4%; G9a block: 5µM*; Lamin A splicing: inconclusive

Results for CCOC(=O)N1CCc2c(sc(NCc3sccc3C)c2C(=O)Nc2cc(Cl)ccc2OC)C1 ?
miR-21 reporter: -6%; G9a block: 3.5µM*; Lamin A splicing: 7%[46 µM]

Results for CCOC(=O)N1CCc2c(sc(NCc3ccc(N(CC)CC)cc3)c2C(=O)Nc2cc(OC)ccc2OC)C1 ?
miR-21 reporter: 5%; G9a block: 7.1µM*; Lamin A splicing: -11%[46 µM]

What do the screens show for `COc1ccc(NC(=O)c2c(NCc3sccc3C)sc3c2CCCC3)c(OC)c1`?
miR-21 reporter: 6%; G9a block: 14µM*; Lamin A splicing: -9%[46 µM]

How did COc1ccc(NC(=O)c2c(NCc3cccc(F)c3)sc3c2CCC3)c(OC)c1 do in these assays?
miR-21 reporter: -9%; G9a block: inconclusive; Lamin A splicing: inconclusive

Results for Cc1ccc(NC(=O)Cn2c(=O)n(CCC(=O)NCc3ccccc3Cl)c(=O)c3ccccc32)c(C)c1 ?
miR-21 reporter: 6%; G9a block: inconclusive

How did O=C(NCc1cccc(Br)c1)c1cnn(-c2ccc(F)cc2)c1-n1cccc1 do in these assays?
miR-21 reporter: 2%; G9a block: 0%[59 µM]

How did COC(=O)c1sc(NC(=O)c2cc(C)on2)nc1C do in these assays?
miR-21 reporter: -33%; Sfp PPTase inh: 0%; G9a block: inconclusive

Results for CCOC(=O)N1CCc2c(sc(NCc3cccs3)c2C(=O)Nc2cc(OC)ccc2OC)C1 ?
miR-21 reporter: -7%; G9a block: 1.6µM*; Lamin A splicing: 1%[46 µM]

Results for CCOC(=O)N1CCc2c(sc(NCc3ccc(OCC)cc3)c2C(=O)Nc2ccc(OC)cc2OC)C1 ?
miR-21 reporter: inconclusive; G9a block: 7.9µM*; Lamin A splicing: -4%[46 µM]

What do the screens show for `CCOC(=O)N1CCc2c(sc(NCc3ccc(N(C)C)cc3)c2C(=O)Nc2ccccc2OCC)C1`?
miR-21 reporter: 20%; G9a block: 3.2µM*; Lamin A splicing: -29%[46 µM]

Results for CCOC(=O)N1CCc2c(sc(NCc3cccs3)c2C(=O)Nc2ccc(OC)cc2OC)C1 ?
miR-21 reporter: inconclusive; G9a block: 2.8µM*; Lamin A splicing: 16%[46 µM]

Results for C=CCNCC(=O)Nc1sc2c(c1C(=O)Nc1ccc(OC)cc1OC)CCC2 ?
JMJD2E inh: inconclusive; miR-21 reporter: -3%; ALDH1A1 inh: inconclusive; Sfp PPTase inh: inconclusive

What do the screens show for `COc1ccc(Cl)cc1NC(=O)c1c(NCc2ccc(C)o2)sc2c1CCCC2`?
miR-21 reporter: -1%; G9a block: inconclusive; Lamin A splicing: -9%[46 µM]

Results for O=c1c2sc3ccccc3c2n(Cc2ccccc2F)c(=O)n1-c1ccccc1Cl ?
miR-21 reporter: 2%; G9a block: 9%[59 µM]

Results for COc1ccc(NC(=O)c2c(NCc3ccc(OC)c(OC)c3OC)sc3c2CCC3)c(OC)c1 ?
miR-21 reporter: -3%; G9a block: 13µM*; Lamin A splicing: inconclusive

Entries from the list above that have a furan ring, fused or not:
How did COc1ccc(OC)c(NC(=O)c2c(NCc3ccc(C)o3)sc3c2CCC(C)C3)c1 (stereo not given) do in these assays?
miR-21 reporter: 1%; G9a block: 11µM*; Lamin A splicing: inconclusive

How did CCOc1ccccc1NC(=O)c1c(NCc2ccc(C)o2)sc2c1CCCCC2 do in these assays?
miR-21 reporter: -4%; G9a block: 5µM*; Lamin A splicing: inconclusive

What do the screens show for `COc1ccc(Cl)cc1NC(=O)c1c(NCc2ccc(C)o2)sc2c1CCCC2`?
miR-21 reporter: -1%; G9a block: inconclusive; Lamin A splicing: -9%[46 µM]
